Measurements reported in patent US9133235B2, “Macrocyclic antagonists of the motilin receptor for treatment of gastrointestinal dysmotility disorders” (Ocera Therapeutics, Inc., priority 2006, dated 2015).
pIC50, pKi: −log10 of the molar value.

Chains of the proteins cited; added tags and fusions are not shown.
UniProt O43193, whole entry: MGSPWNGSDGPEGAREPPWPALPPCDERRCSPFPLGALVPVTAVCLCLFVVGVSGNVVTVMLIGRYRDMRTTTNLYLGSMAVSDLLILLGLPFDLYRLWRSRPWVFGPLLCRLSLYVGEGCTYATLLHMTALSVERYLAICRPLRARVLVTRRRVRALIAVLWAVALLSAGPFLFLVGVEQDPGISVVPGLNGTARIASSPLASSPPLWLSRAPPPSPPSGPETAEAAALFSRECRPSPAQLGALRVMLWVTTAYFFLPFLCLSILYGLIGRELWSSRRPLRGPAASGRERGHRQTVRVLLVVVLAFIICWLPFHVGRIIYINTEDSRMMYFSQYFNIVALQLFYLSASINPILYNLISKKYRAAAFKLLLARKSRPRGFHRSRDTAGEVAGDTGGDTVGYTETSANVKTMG

What was measured:
human motilin receptor [1] = target: T1, human motilin receptor (Homo sapiens, UniProt O43193); assay: Competitive radioligand binding assay (motilin receptor); settings: [125I]-motilin competition, membranes of CHO cells with human motilin receptor
[2] = Pharmacokinetic analysis in rat (i.v., s.c., p.o.)
human motilin receptor [3] = target: T1, human motilin receptor; assay: Aequorin functional assay (motilin receptor); settings: functional activity, antagonist testing vs motilin 0.5 nM (EC80)
Caco-2 cells = assay: Caco-2 permeability; settings: 10 μM, 60 min, 37° C.

Structure (SMILES)	pKi (human motilin receptor [1])	other results
CC1COc2ccccc2CCCNC(=O)C(CC2CC2)NC(=O)C(C(C)C)NC(=O)C(Cc2cccc(F)c2)N1 (single isomer, unassigned) [589a]	> 6.00	
CC(C)[C@H]1NC(=O)[C@@H](Cc2cccc(Cl)c2)NCCOc2ccccc2CCCNC(=O)[C@H](Cn2ccnc2)NC1=O	> 7.00	
CNCC1NC(=O)C(C(C)C)NC(=O)C(Cc2cccc(Cl)c2)NCCOc2ccccc2CCCNC1=O (single isomer, unassigned) [512a]	> 7.00	
CCC[C@@H]1NC(=O)[C@@H](C(C)C)NC(=O)[C@@H](Cc2cccc(F)c2)N[C@@H](C)COc2c(F)cccc2CCCNC1=O	> 7.00	Clearance ([2]; i.v.): 27 mL/min/kg; Elimination (t1/2, min) ([2]; i.v., typical dose 2 mg/kg): 55 min; Bioavailability (oral) ([2]; p.o., in the presence of 10% beta-cyclodextrin): 21%; Elimination (t1/2, min) ([2]; p.o., typical dose 8 mg/kg, in the presence of 10% beta-cyclodextrin): 117 min; pIC50 (human motilin receptor [3]): > 8.00
CC(C)C1NC(=O)C(Cc2cccc(C(F)(F)F)c2)NCCOc2ccccc2CCCNC(=O)C(CNC(=N)N)NC1=O (single isomer, unassigned) [503c]	> 8.00	
CC(C)C1NC(=O)C(Cc2cccc(C(F)(F)F)c2)NCCOc2ccccc2CCCNC(=O)C(CN(C)C)NC1=O (single isomer, unassigned) [502a]	> 8.00	
CC(C)C1NC(=O)C(Cc2cccc(Cl)c2)NCCOc2ccccc2CCCNC(=O)C(Cn2cccn2)NC1=O (single isomer, unassigned) [511a]	> 7.00	
CC(C)[C@H]1NC(=O)[C@@H](Cc2cccc(F)c2)N[C@@H](C)COc2ccccc2CCCNC(=O)[C@H](CO)NC1=O	> 7.00	Clearance ([2]; i.v.): 65 mL/min/kg; Elimination (t1/2, min) ([2]; i.v., typical dose 2 mg/kg): 25 min; Clearance ([2]; s.c.): 42 mL/min/kg; Elimination (t1/2, min) ([2]; s.c., typical dose 2 mg/kg): 132 min; pIC50 (human motilin receptor [3]): > 8.00
CC1COc2ccccc2CCCNC(=O)C(CC2CC2)NC(=O)C(C(C)C)NC(=O)C(Cc2cccc(F)c2)N1 (single isomer, unassigned) [554c]	> 7.00	
CC1COc2ccccc2CCCNC(=O)C(CC2CC2)NC(=O)C(C(C)C)NC(=O)C(Cc2cccc(F)c2)N1 (single isomer, unassigned) [554b]	> 6.00	
CC(C)C1NC(=O)C(Cc2cccc(Cl)c2)NCCOc2ccccc2CCCNC(=O)C(CN(C)C)NC1=O (single isomer, unassigned)	> 7.00	
CC1COc2ccccc2CCCNC(=O)C(CNC(=N)N)NC(=O)C(C(C)C)NC(=O)C(Cc2cccc(Cl)c2)N1 (single isomer, unassigned)		pKi (human motilin receptor [1]; tested form: TFA): > 6.00
CC1COc2ccccc2CCCNC(=O)C(CC2CC2)NC(=O)C(C(C)C)NC(=O)C(Cc2cccc(F)c2)N1 (single isomer, unassigned) [554a]	> 8.00	
CCC[C@@H]1NC(=O)[C@@H](C(C)C)NC(=O)[C@@H](Cc2cccc(F)c2)N[C@@H](C)COc2cccc(F)c2CCCNC1=O	> 8.00	pIC50 (human motilin receptor [3]): > 9.00
CC1COc2ccccc2CCCNC(=O)C(CNC(=N)N)NC(=O)C(C(C)C)NC(=O)C(Cc2cccc(Cl)c2)N1 (single isomer, unassigned) [516b]	> 7.00	
CC(C)C1NC(=O)C(Cc2cccc(Cl)c2)NCCOc2ccccc2CCCNC(=O)C(CCC(=N)N)NC1=O (single isomer, unassigned)	> 7.00	
CC1COc2ccccc2CCCNC(=O)C(CC2CC2)NC(=O)C(C(C)C)NC(=O)C(Cc2cccc(F)c2)N1 (single isomer, unassigned) [589b]	< 6.00	

Structure (SMILES)	pKi (human motilin receptor [1])	other results
CC(C)C1NC(=O)C(Cc2cccc(Cl)c2)NCCOc2ccccc2CCCNC(=O)C(CNC2=NCCN2)NC1=O (single isomer, unassigned)	> 7.00	
CCC[C@@H]1NC(=O)[C@@H](C(C)C)NC(=O)[C@@H](Cc2cccc(F)c2)NC(CO)COc2ccccc2CCCNC1=O (stereo partly drawn)	> 8.00	pIC50 (human motilin receptor [3]): > 8.00
CNCC1NC(=O)C(C(C)C)NC(=O)C(Cc2cccc(Cl)c2)NCCOc2ccccc2CCCNC1=O (single isomer, unassigned) [512b]	> 6.00	
CC(C)C1NC(=O)C(Cc2ccc(O)cc2)NCCOc2ccccc2CCCNC(=O)C(CNC(=N)N)NC1=O (single isomer, unassigned)	> 6.00	
CC(C)C1NC(=O)C(Cc2cccc(C(F)(F)F)c2)NCCOc2ccccc2CCCNC(=O)C(CNC(=N)N)NC1=O (single isomer, unassigned) [503a]	> 8.00	
CC(C)[C@H]1NC(=O)[C@@H](Cc2cccc(Cl)c2)NCCOc2ccccc2CCCNC(=O)[C@H](Cn2cccn2)NC1=O		Papp A to B (Caco-2 cells; apical to basolateral): 15 cm/sec × 10^−6; Papp B to A (Caco-2 cells; basolateral to apical): 17 cm/sec × 10^−6; pIC50 (human motilin receptor [3]): > 7.00
CC1CNC(=O)C(CN(C)C)NC(=O)C(C(C)C)NC(=O)C(Cc2cccc(F)c2)NCCOc2ccccc2C1 (single isomer, unassigned) [515b]	> 7.00	
CCCC1NC(=O)C(C(C)C)NC(=O)C(Cc2cc(I)c(O)c(I)c2)NCCOc2ccccc2CCCNC1=O (single isomer, unassigned)	> 6.00	
CC(C)C1NC(=O)C(Cc2ccc(Cl)cc2)NCCOc2ccccc2CCCNC(=O)C(CN(C)C)NC1=O (single isomer, unassigned)	> 7.00	
CC(C)C1NC(=O)C(Cc2cccc(C(F)(F)F)c2)NCCOc2ccccc2CCCNC(=O)C(CNC(=N)N)NC1=O (single isomer, unassigned) [503b]	> 7.00	
CC(C)[C@H]1NC(=O)[C@@H](Cc2cccc(F)c2)N(C)[C@@H](C)COc2ccccc2CCCNC(=O)[C@H](CN(C)C)NC1=O	> 6.00	
CC(C)C1NC(=O)C(Cc2cccc(C(F)(F)F)c2)NCCOc2ccccc2CCCNC(=O)C(CN(C)C)NC1=O (single isomer, unassigned) [502b]	> 7.00	
CCC[C@@H]1NC(=O)[C@@H](C(C)C)NC(=O)[C@@H](Cc2cccc(F)c2)NC(C(C)C)COc2ccccc2CCCNC1=O (stereo partly drawn)	> 7.00	pIC50 (human motilin receptor [3]): > 7.00
CC(C)C1NC(=O)C(Cc2cccc(Cl)c2)NCCOc2ccccc2CCCNC(=O)C(Cn2cccn2)NC1=O (single isomer, unassigned) [511b]	> 6.00	
CC1CNC(=O)C(CN(C)C)NC(=O)C(C(C)C)NC(=O)C(Cc2cccc(F)c2)NCCOc2ccccc2C1 (single isomer, unassigned) [515a]	> 8.00	
CC1COc2ccccc2CCCNC(=O)C(CNC(=N)N)NC(=O)C(C(C)C)NC(=O)C(Cc2cccc(Cl)c2)N1 (single isomer, unassigned) [516a]	> 8.00	
